Measured values reported in patent US5663295A, “Opioid peptides” (Biomeasure Inc., priority 1994, dated 1997).

Amino acid sequences for entries named in this document (tags omitted).
UniProt P33535, whole entry: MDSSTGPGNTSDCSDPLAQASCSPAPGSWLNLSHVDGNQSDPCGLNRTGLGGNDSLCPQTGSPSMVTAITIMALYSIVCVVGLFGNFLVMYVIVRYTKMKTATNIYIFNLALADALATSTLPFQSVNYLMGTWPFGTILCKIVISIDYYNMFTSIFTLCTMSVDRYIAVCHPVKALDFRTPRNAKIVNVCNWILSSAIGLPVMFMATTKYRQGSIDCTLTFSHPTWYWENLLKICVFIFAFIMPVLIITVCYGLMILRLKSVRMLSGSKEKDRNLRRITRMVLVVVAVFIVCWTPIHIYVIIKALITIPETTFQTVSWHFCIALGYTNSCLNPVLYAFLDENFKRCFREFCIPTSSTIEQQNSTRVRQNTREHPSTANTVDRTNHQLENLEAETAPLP

Target: Mu Opiate Receptors (Rattus norvegicus, UniProt P33535)
Assay: Effect of sodium ion on binding to mu opiate receptors in vitro
Set-up: species or system guinea-pig or rat

[D-Ala^2, D-Leu^3 ] enkephalin was tested, and the Ki (100 mM NaCl, read-out: Ki, mu opiate receptor, +NaCl) was 560 nM, the “-NaCl/+NaCl (ratio of Ki)” value (Ki ratio without and with 100 mM NaCl) was 37 and the Ki (without NaCl, read-out: Ki, mu opiate receptor, -NaCl) was 15 nM.

Like-named read-outs stand apart in the source and are kept apart here.
